# Rev-erbA mod = modulates human Rev-erb alpha binding to DNA; P20393; Rev-erbα–FITC-DNA binding, fluorescence polarization, 90 min; activity, % at 10 µM; actives 0.79% (n = 370,000);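 active = activity above about 14%, limit read from the data; passing the limit was not always enough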;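 note: 0% = DMSO wells with 35 nM protein and 100% = DMSO wells with 750 nM protein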
# SMARCA2 act = SMARCA2 function activation, primary screen; MG213 cells, MMTV-luciferase reporter, dexamethasone, overnight; activation, % at 9.1 µM; actives 1% (n = 370,000); in the data active = activation above about 7.8%;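 note: 0% = vehicle wells and 100% = reference activator wells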
# UUG fidelity = modulators of start codon recognition fidelity in yeast; S. cerevisiae UUG-firefly luciferase reporter, luminescence/redox ratio; activity score, % at 18.7 µM; hit rate 0.13% among 350,000; AID 602363;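 active = replicate mean at a twofold rise or more, about +100% in these data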;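 note: firefly luciferase made from a UUG start codon reports start codon fidelity; reporter light over untreated wells divided by growth signal over untreated wells; some hits fall short of that in this replicate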
# ERp5 block = inhibitors of human ERp5 | actives 0.05% (n = 350,000) | inhibition, % at 9.99 µM | ERp5 insulin aggregation, absorbance 650 nm, 90 min | AID 651711;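 active = mean replicate inhibition above about 25%, with every replicate also reaching it, limit read from the data, passing the limit was not always enough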
# PDI inh = PDI (human) enzyme inhibition; P07237; inhibition, % at 10 µM; PDI insulin aggregation turbidity, A650, 90 min; actives 0.052% (n = 350,000);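 active = mean inhibition across replicates of 30% or more, whatever share of single replicates reach that level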
# INS-1E GSIS act = GLuc luminescence reporter in INS-1E cells, primary screen for activators of glucose-dependent secretion of insulin | INS-1E GLuc reporter insulin secretion, 2-3 h | activation, % at 16.6 µM | actives 0.61% (n = 370,000) | AID 743287;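 active = lowest replicate activation of at least 40%, so every replicate reaches that level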;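 note: 0% = median of neutral control wells and 100% = median of IBMX positive control wells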
# SMARCA2 act conf = confirmation of SMARCA2 (BRM) function activators; activation, % at 9.1 µM; MG213 cells, MMTV-luciferase with dexamethasone, luminescence, overnight; MG213 cells expressing E1A, Rb sequestered; DMSO wells 0%, reference activator 100%; actives 30% (n = 3,500); shares compounds with SMARCA2 act; AID 652260;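 active = activation above its plate's cutoff, the mean activation of tested wells plus 3 SD, cut at about 7.9% in these data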
# GAL4-VP16 Luc = GAL4-VP16 reporter activation counter-screen; shares compounds with SMARCA2 act; activation, % at 9.1 µM; HEK293 GAL4-VP16 pG5luc reporter, luciferase luminescence; scaled: DMSO wells 0%, SAHA wells 100%; AID 686939; actives 41% (n = 3,500);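 active = activation above the solvent-only control well mean plus 3 SD, averaged across control plates, cut at about 5.2% in these data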
# * = called active by the depositor; . = no result. Only some compounds are listed: those with a hit (about 2.1% of all), similar ones and a draw of the others.
No.	SMILES	Rev-erbA mod	SMARCA2 act	UUG fidelity	ERp5 block	PDI inh	INS-1E GSIS act	SMARCA2 act conf	GAL4-VP16 Luc
1	O=C(Nc1ccc2c(c1)OCO2)C(=O)c1c[nH]c2ccccc12	-1	9.2*	-9	-3	-15	-3	4	7.7*
2	CC(=O)Nc1c(C(=O)Nc2ccc3c(c2)OCO3)oc2ccccc12	-1	3	-19	3	-11	6	.	.
3	O=C(NCCc1c[nH]c2ccccc12)c1ccc2c(c1)OCO2	5	9.7*	-16	3	-6	23	13*	8.1*
4	C[C@@H]1CN([C@H](C)CO)C(=O)c2cc(NC(=O)c3ccncc3)ccc2O[C@@H](C)CCCCO[C@@H]1CN(C)S(=O)(=O)c1ccccc1	.	.	-8	5	.	-14	.	.
5	COc1ccc(C2=NN(S(C)(=O)=O)C(c3cccs3)C2)cc1 (stereo not drawn)	-4	10*	.	0	-4	-4	8.1*	6.5*
6	Cc1ccc(C2=NN(S(C)(=O)=O)C(c3cccs3)C2)cc1 (stereo not drawn)	-9	4	-7	.	-3	.	.	.
7	COc1ccc(NC(=O)Nc2ccc3c(c2)C(=O)N([C@@H](C)CO)C[C@H](C)[C@H](CN(C)C(=O)Nc2ccccc2)O3)cc1	.	.	6	-3	.	13	.	.
8	COc1ccccc1OCCSc1nnnn1-c1ccc(C)cc1	3	9.0*	-35	5	4	5	0	3
9	CCOc1ccc(OCc2ccc(C(=O)N3CCc4ccccc4C3)o2)cc1	.	13*	-16	3	1	-29	6	4
10	COc1ccc(S(=O)(=O)N(C)C[C@H]2Oc3ccc(NS(=O)(=O)c4ccc(Cl)cc4)cc3CC(=O)N([C@H](C)CO)C[C@H]2C)cc1	.	.	4	.	.	-12	.	.
11	CC(C)[C@@H]1CC=CC[C@H](C)Oc2ccccc2C(=O)N(C)[C@@H](C(C)C)C(=O)N1 (mixture of isomers)	.	.	.	.	.	-5	.	.
12	O=C(N/N=C/C(Br)=C/c1ccccc1)c1ccccc1F	1	13*	-12	0	-6	-2	11*	12*
13	COc1ccc(CN(C)C[C@H]2OCCCC[C@H](C)Oc3ccc(NS(=O)(=O)c4ccc(C)cc4)cc3C(=O)N([C@@H](C)CO)C[C@@H]2C)cc1	.	.	8	3	.	-30	.	.
14	O=c1c(Cl)c(NCCCO)cnn1-c1nc2ccccc2[nH]1	-2	22*	-41	.	1	.	17*	18*
15	CCOc1ccc(CCN2C(=O)C3C4CCC(O4)C3C2=O)cc1OCC (stereo not drawn)	-4	10*	-4	4	-4	14	0	0

# Compound profiles, as listed above. Values in the order: Rev-erbA mod	SMARCA2 act	UUG fidelity	ERp5 block	PDI inh	INS-1E GSIS act	SMARCA2 act conf	GAL4-VP16 Luc
# Record of CC(=O)Nc1c(C(=O)Nc2ccc3c(c2)OCO3)oc2ccccc12 : -1	3	-19	3	-11	6	.	.
# Record of O=C(NCCc1c[nH]c2ccccc12)c1ccc2c(c1)OCO2 : 5	9.7*	-16	3	-6	23	13*	8.1*
# Record of O=C(N/N=C/C(Br)=C/c1ccccc1)c1ccccc1F : 1	13*	-12	0	-6	-2	11*	12*

# (list continues)
No.	SMILES	Rev-erbA mod	SMARCA2 act	UUG fidelity	ERp5 block	PDI inh	INS-1E GSIS act	SMARCA2 act conf	GAL4-VP16 Luc
16	O=C(CSc1ccccc1)Nc1ccc2c(c1)OCO2	-5	4	-14	-6	-1	1	.	.
17	O=C(CSc1ccccc1F)Nc1ccc2c(c1)OCO2	0	11*	-9	1	-9	-2	6	5.7*
18	Cc1cccc(-c2nsc(SCC(=O)Nc3ccc4c(c3)OCO4)n2)c1	-3	9.7*	.	.	0	-20	2	1
19	Cc1noc(C)c1NC(=O)Nc1ccc2c(c1)C(=O)N([C@H](C)CO)C[C@H](C)[C@@H](CN(C)Cc1ccc(C(F)(F)F)cc1)OCCCC[C@H](C)O2	.	.	8	7	.	0	.	.
20	COc1cc(C=NN=c2sc3ccccc3n2C)ccc1OCCO	7	11*	.	0	.	.	10*	12*
21	COc1cc(C(=O)N=c2sc3ccccc3n2C)cc(OC)c1OC	-3	-2	.	2	2	26	.	.
22	CC(=O)Nc1ccc2c(c1)C(=O)N(C)C[C@@H](C)[C@@H](CN(C)C(=O)OC(C)(C)C)O2	.	.	.	.	.	34	.	.
23	Nc1nc(N)c2sc3nc4c(cc3c2n1)CCC4	0	8.1*	-2	.	4	.	11*	5.1*
24	CN1C(=O)c2cc(NC(=O)c3cncs3)ccc2OC[C@H]2O[C@@H](CC(=O)NCC3CC3)CC[C@@H]21	.	.	.	.	.	9	.	.
